Test results published in PubChem BioAssay AID1010 (Sanford-Burnham Center for Chemical Genomics, 2008).
The entries are a selection whose mix differs from that of the whole data set. Some results for these compounds are left out of this collection, so the calls shown say nothing about other tests. Calls of active or inactive are those of the source.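 How the source made its calls: active means survival measured by cellular ATP above 50% at 15 µg/ml in the first screen; inactive means the rest.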

Test: protection against thapsigargin ER stress killing – CSM14.1 cells, ATP luminescence, primary screen (AID 1010);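 further: cell death triggered by about 15 µM thapsigargin; ATP read 24 h after thapsigargin was added; plate controls were thapsigargin with DMSO for no effect and DMSO without thapsigargin for full effect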
Conditions: CSM14.1 thapsigargin ER stress survival, stronger effect = higher value, screened at 15 µg/mL (by protocol)

Question: Which relative survival (cellular ATP) does the source give for `COc1ccc(OC)c(C=C(C#N)C#N)c1` here?
Answer: Its relative survival (cellular ATP) is inactive: 4.8%.
